Measurements taken from article doi:10.1101/2023.01.27.525918 (bioRxiv, 2023).

What was measured:
[1] = target: T1, ZUP1 C360A (catalytically inactive mutant of full length ZUP1) (human, UniProt Q96AP4 1-578, C360A); assay: cross-linking
T1 sequence: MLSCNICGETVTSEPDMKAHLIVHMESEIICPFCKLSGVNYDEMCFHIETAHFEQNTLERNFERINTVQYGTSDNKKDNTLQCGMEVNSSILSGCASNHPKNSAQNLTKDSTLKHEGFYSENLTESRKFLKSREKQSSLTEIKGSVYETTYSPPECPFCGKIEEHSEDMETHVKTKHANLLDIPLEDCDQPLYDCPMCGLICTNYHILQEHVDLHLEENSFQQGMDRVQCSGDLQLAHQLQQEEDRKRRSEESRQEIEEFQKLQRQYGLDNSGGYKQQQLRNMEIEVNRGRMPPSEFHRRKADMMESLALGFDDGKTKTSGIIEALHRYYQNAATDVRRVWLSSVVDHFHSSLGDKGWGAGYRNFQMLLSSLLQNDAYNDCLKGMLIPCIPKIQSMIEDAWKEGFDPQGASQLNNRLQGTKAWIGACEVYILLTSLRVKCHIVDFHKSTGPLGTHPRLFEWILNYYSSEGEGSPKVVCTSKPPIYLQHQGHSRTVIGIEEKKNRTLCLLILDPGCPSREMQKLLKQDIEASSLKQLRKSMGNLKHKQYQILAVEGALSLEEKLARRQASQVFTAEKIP

[2] = target: T2, Zinc finger-containing Ub peptidase 1 (ZUP1), full length, untagged (human, UniProt Q96AP4 1-578); assay: cross-linking
T2 sequence: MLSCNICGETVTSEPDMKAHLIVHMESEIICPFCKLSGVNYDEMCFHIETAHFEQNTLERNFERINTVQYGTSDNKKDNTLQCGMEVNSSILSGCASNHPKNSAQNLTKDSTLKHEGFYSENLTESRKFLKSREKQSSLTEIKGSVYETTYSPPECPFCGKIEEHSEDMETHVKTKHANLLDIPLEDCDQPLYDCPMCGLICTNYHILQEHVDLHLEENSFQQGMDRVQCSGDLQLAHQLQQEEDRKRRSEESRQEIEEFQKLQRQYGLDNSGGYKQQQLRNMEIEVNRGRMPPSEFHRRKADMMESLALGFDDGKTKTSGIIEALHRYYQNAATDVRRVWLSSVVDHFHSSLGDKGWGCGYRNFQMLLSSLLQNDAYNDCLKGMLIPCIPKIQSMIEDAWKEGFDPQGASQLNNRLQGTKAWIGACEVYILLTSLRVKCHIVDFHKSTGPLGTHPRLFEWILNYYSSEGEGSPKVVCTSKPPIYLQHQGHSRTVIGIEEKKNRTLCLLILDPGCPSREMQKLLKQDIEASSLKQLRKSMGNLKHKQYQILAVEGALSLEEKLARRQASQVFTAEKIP

binding result [1]: binds
binding result [2]: binds
B1: RPA32, untagged recombinant (natural protein)
chain: MWNSGFESYGSSSYGGAGGYTQSPGGFGSPAPSQAEKKSRARAQHIVPCTISQLLSATLVDEVFRIGNVEISQVTIVGIIRHAEKAPTNIVYKIDDMTAAPMDVRQWVDTDDTSSENTVVPPETYVKVAGHLRSFQNKKSLVAFKIMPLEDMNEFTTHILEVINAHMVLSKANSQPSAGRAPISNPGMSEAGNFGGNSFMPANGLTVAQNQVLNLIKACPRPEGLNFQDLKNQLKHMSVSSIKQAVDFLSNEGHIYSTVDDDHFKSTDAE
